The test system of data set [1] is mice with non alcoholic fatty liver disease (NAFLD). Kind of data set: mice with NAFLD (high fat diet plus 30% fructose in drinking water), daily oral psilocybin. The settings on record: 0.05 mg/kg daily, during the weeks of treatment.
Another data set has as its system HepG2 cells. Kind of data set: in vitro model of NAFLD: lipid accumulation in HepG2 cells incubated with PA:OA mix. As to conditions: 24 hours with 1 mM 1:1 PA:OA mixture.

Each structure is given as a SMILES string.

Consider `CN(C)CCc1c[nH]c2cccc(OP(=O)(O)O)c12` [psilocybin], for which the “signs of psychoactive effects” value in data set [1] is recorded as “No signs of psychoactive effects have been observed”. With `CN(C)CCc1c[nH]c2cccc(O)c12` [psilocin], in the data set on HepG2 cells, the “accumulation of triglycerides inside the cells” value is “reduces the accumulation of triglycerides inside the cells in a dose-dependent manner”; the “number and area of lipid droplets” value is “reduction of the number and the area of lipid droplets”.

For the origin of these results see patent publication US20240245789A1, “POLYMER CONJUGATES OF DRUGS TARGETING 5-HT AND OTHER RECEPTORS IN THE CENTRAL NERVOUS SYSTEM (CNS) THAT ALSO TARGETS RECEPTORS OUTSIDE OF THE CNS” (Arbormentis LLC, priority 2021, published 2024).
